SMILES strings stand for the structures.

From WO2015077660A1, “Enzyme reactor system enabling enhanced enzymatic digestion, analyte solubility and improved mass spectrometric compatibility” (priority 2013, dated 2014) come the findings set out here.

In this test the test system is trypsin. The test can be described thus: Insulin digestion in immobilized enzyme reactor, buffer screening (Table 7). To be noted: IMER, 70°C, 60 s. Format: biochemical, porcine.

Take `NC(CO)(CO)CO` [Tris]: the Peptide stood at 1044238 (0.05M), 1053652 (0.1M) and 986402 (0.25M).
